These results are taken from BindingDB's records for doi:10.1021/jm00087a004 (Harvard Medical School, 1992).

The chains behind the UniProt entries cited, without tags or fusion partners.
UniProt P41143, whole entry: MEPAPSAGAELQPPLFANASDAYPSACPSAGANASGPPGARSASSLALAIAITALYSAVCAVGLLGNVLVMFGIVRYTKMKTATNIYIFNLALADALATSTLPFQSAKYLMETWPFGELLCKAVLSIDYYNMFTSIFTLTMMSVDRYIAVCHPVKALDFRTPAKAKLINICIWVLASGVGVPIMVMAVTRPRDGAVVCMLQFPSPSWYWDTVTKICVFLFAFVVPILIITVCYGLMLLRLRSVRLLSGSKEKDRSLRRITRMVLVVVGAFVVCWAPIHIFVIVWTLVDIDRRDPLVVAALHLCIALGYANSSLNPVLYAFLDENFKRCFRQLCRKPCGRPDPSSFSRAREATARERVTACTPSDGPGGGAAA

This test deals with Delta-type opioid receptor (Homo sapiens, UniProt P41143). Kind of test: Binding affinity towards Opioid receptor delta 1. The method in brief:
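Calf frontal cortex membranes with [3H]DPDPE 1 nM. Samples filtered over glass fiber after incubation. Nonspecific binding taken with levallorphan. Triplicates, experiment repeated three times. Ki = IC50/(1+[radioligand]/KD). Mean ± SEM.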

As a reminder, the Ki is the dissociation constant of the complex between target and ligand, obtained from inhibition or displacement. Higher therefore signals weaker binding. `C[C@@H]1C2CCCC1(c1cccc(O)c1)CCN2C` (stereo partly specified): the Ki was greater than 500 nM.
